Assay outcomes from PubChem BioAssay.
Sampled rows, rich in hits. Any-hit rate of the full collection: about 1.7%.
GLP1R inv ag = GLP-1 receptor (human) inverse agonism | P43220 | HEK293 GLP-1R CRE-luciferase, luminescence, 24 h; GLP-1R form is constitutively active | Potency, µM (titrated, usually from 38.3 µM), for the others: at the top dose activity change, negative = inhibition, hits mostly inhibitors | actives 1.6% (n = 410,000) | AID 624417; also: potency is read from the fitted curve at half-maximal effect; % is scaled to controls: 0 for no effect and ±100 for the full control effect; nearly all actives have a fitted effect of over 55% in size
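qHTS in 1536-well format: reporter HEK293 cells expressing constitutive GLP-1R activity in DMEM + 10% Nu serum, 24 hr with compounds at 37 deg C, luminescence read after 12 min with detection reagent.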
Pin1 inhibitor = blocks the human prolyl isomerase Pin1; Q13526; Potency, µM (top dose mostly 115 µM), without a hit: top-dose activity, negative = inhibition, actives largely listed as inhibitors; actives 0.009% (n = 390,000); Pin1 FP peptide displacement, HiFluor488, 10 min; active = well fitted inhibition curve with a large enough effect in the polarisation, with a control signal flat, not every such curve was filed as active; inconclusive = small, poorly fitted or top-dose-only effect, or effect the other way, or a change in a side signal; inactive = no such curve, though single readings can be large or run the other way; the % refers to the polarisation; also: potency is read from the fitted curve at half-maximal effect; % is scaled to controls: 0 for no effect and ±100 for the full control effect
HEK293 tox = cytotoxicity in counter-screen for GLP-1R inverse agonists; AID 624418; HEK293 cAMP-luciferase reporter cells, luminescence, 24 h; Potency, µM (titrated, usually from 38.3 µM), for the others: at the top dose activity change, negative = inhibition, most hits filed as inhibitors; actives 0.13% (n = 410,000);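 also: loss of luciferase light is scored as toxicity; potency is read from the fitted curve at half-maximal effect; % is scaled to controls: 0 for no effect and ±100 for the full control effect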
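Luminescence readout: signal drop marks cytotoxicity. Plated cells grew 12 h at 37 °C, 5% CO2, received 23 nL compound for 24 h, then got luciferase reagent, read after 12 min at RT.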
miR-21 reporter = miR-21 reporter, rising signal; Potency, µM (titrated, usually from 38.3 µM), without a hit: at the highest dose reporter change, positive = more light; AID 2288; 340,000 tested, under 10 active; HeLa miR-21 FLuc reporter, luciferase, 48 h; active = well fitted rising curve with a large enough effect; inconclusive = small, poorly fitted or top-dose-only effect; inactive = no such curve, though single readings can be large or run the other way;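 note: % of control where 0% means no effect; miR-21 action dims this reporter so a rising signal means less miR-21 action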
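Compounds were titrated across several concentrations (up to approximately 40 uM) and incubated 48 hours with HeLa miR-21-FLuc reporter cells (miR-21 target sequence downstream of FLuc, endogenous miR-21). Readout was firefly luciferase luminescence after lytic detection reagent.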
PTHR1 agonist = PTHR1 (human) receptor agonism. Q03431. HEK293 GP2 PTHR1 cells, GloSensor cAMP luminescence, 1 h. Potency, µM (doses to about 115 µM), without a hit: at the highest dose activation, most hits filed as activators. actives 0.075% (n = 410,000); also: potency is read from the fitted curve at half-maximal effect; nearly all actives have a fitted effect of over 55% in size
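HEK-293-derived GP2 cells expressing PTHR1 and a GloSensor cAMP reporter, 3,000/well, plated overnight, given luciferin plus IBMX (each 0.5 mM as added) for 1 h at 37 °C, then compound for 1 h at 37 °C. Luminescence was read after 15 min at room temperature.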
GLP1R ag = GLP-1 receptor (human) agonism; P43220; actives 0.007% (n = 380,000); HEK293 GLP-1R CRE-luciferase, luminescence, 4-6 h; cells express a hypersensitive GLP-1R form; AID 624172; Potency, µM (top dose mostly 45.6 µM), for inactives: at the highest dose activation, most hits filed as activators; also: potency is read from the fitted curve at half-maximal effect; % of control where 0% means no effect
An asterisk follows results filed as active; i = inactive; ? = inconclusive; nt = no result given; [ ] = remark or other dose. Unless noted, calls follow the shape of the dose curve; as a rule, active = well fitted curve in the direction sought with a large enough effect; inconclusive = small, poorly fitted or top-dose-only effect, or another doubt; inactive = no such curve, though single readings can be large; an effect the other way counts as inactive or inconclusive.

Start of the listing, in advance, 4 compounds:
nr	SMILES	GLP1R inv ag	Pin1 inhibitor	HEK293 tox
1	COc1ccc(C2Nc3ccccc3C(=O)N2c2ccccc2F)cc1COc1ccc(NC(C)=O)cc1 (stereo not given)	nt	-0.3%	nt
2	CC(C)C[C@@H](CN1CCCC1CN1C(=S)NC[C@@H]1Cc1ccc(O)cc1)N1C[C@H](Cc2ccc(O)cc2)N(CCc2ccccc2)C1=S (stereo not given in full)	7.94µM*	21.9%	?
3	Cc1cc(Br)ccc1NC(=O)C1(S(=O)(=O)c2ccc(Cl)cc2)CC1	-24.8%	-2.6%	2.7%
4	COc1ccc(C)cc1S(=O)(=O)Nc1ccc(F)c(Cl)c1	10µM*	6.9%	-7.9%

nr	miR-21 reporter	PTHR1 agonist	GLP1R ag
1	nt	nt	nt
2	nt	9.1%	-2.1%
3	-8.6%	-13.7%	nt
4	5.4%	i	-2.9%

The whole of this part, previewed entries included:
nr	SMILES	GLP1R inv ag	Pin1 inhibitor	HEK293 tox
1	COc1ccc(C2Nc3ccccc3C(=O)N2c2ccccc2F)cc1COc1ccc(NC(C)=O)cc1 (stereo not given)	nt	-0.3%	nt
2	CC(C)C[C@@H](CN1CCCC1CN1C(=S)NC[C@@H]1Cc1ccc(O)cc1)N1C[C@H](Cc2ccc(O)cc2)N(CCc2ccccc2)C1=S (stereo not given in full)	7.94µM*	21.9%	?
3	Cc1cc(Br)ccc1NC(=O)C1(S(=O)(=O)c2ccc(Cl)cc2)CC1	-24.8%	-2.6%	2.7%
4	COc1ccc(C)cc1S(=O)(=O)Nc1ccc(F)c(Cl)c1	10µM*	6.9%	-7.9%
5	Cc1[nH]n(-c2ccccc2)c(=O)c1/C=N/N1C(=O)c2cccc3cccc(c23)C1=O	12.6µM*	-17.9%	?
6	Cc1[nH]n(-c2ccccc2)c(=O)c1/C=N/NC(=O)c1cccc(F)c1	7.94µM*	-7.1%	-16.1%
7	Cc1[nH]n(-c2ccccc2)c(=O)c1/C=N/N1CCOCC1	15.2%	-2.8%	2.3%
8	Cc1ccc2nc(C3CCCN(C(=S)Nc4cccc(C)c4C)C3)[nH]c2c1 (stereo not given)	?	-1.0%	11.2µM*
9	Cc1ccc(NC(=S)N2CCCC(c3nc4ccc(C)cc4[nH]3)C2)c(C)c1 (stereo not given)	?	1.2%	?
10	CCOC(=O)c1c(NC(C)=O)c2c3c(sc2n1Cc1cc(C)ccc1C)CCCC3	6.2%	11.4%	0.3%

nr	miR-21 reporter	PTHR1 agonist	GLP1R ag
1	nt	nt	nt
2	nt	9.1%	-2.1%
3	-8.6%	-13.7%	nt
4	5.4%	i	-2.9%
5	5.2%	i	5.9%
6	4.2%	-35.7%	0.0%
7	-4.7%	i	6.1%
8	16.3%	i	-8.2%
9	-0.4%	-4.5%[57.5 µM]	1.6%
10	-2.9%	i	nt

More entries.
nr	SMILES	GLP1R inv ag	Pin1 inhibitor	HEK293 tox
11	CC(=O)CCc1ccc(OCC(=O)Nc2cccc(S(=O)(=O)N(C)c3ccccc3)c2)cc1	11.2µM*	14.9%	7.8%
12	CN(c1ccccc1)S(=O)(=O)c1cccc(NC(=O)CSc2ncc(C(F)(F)F)cc2Cl)c1	10µM*	16.1%	9.8%
13	Cc1ccc2nc(SCC(=O)NC3CCCc4ccccc43)[nH]c2c1 (stereo not given)	8.91µM*	1.1%	-9.1%
14	O=C1NC2CCCCN2C12CCN(CCCN1c3ccccc3CCc3ccc(Cl)cc31)CC2 (stereo not given)	nt	nt	nt
15	CC[N+](CC)(CC)CCOC(=O)C(C1CCCC1)C1CCCC1	nt	nt	nt
16	COc1cc(NC(=O)[C@@H](NC(=O)N2CCn3c2nc2ccccc23)C(C)C)cc(OC)c1	10µM*	-0.5%	?
17	CC(C)[C@H](NC(=O)N1CCn2c1nc1ccccc12)C(=O)N[C@H](Cc1ccccc1)C(=O)O	8.3%	?	-1.2%
18	CSCC[C@H](NC(=O)N1CCn2c1nc1ccccc12)C(=O)NCc1ccc(F)cc1	?	1.8%	-4.0%
19	COc1ccc(CNC(=O)[C@H](CCSC)NC(=O)N2CCn3c2nc2ccccc23)cc1	5.01µM*	-10.2%	-14.8%
20	CCN(CC)CCNC(=O)CCc1c(C)nc2c(c(C)nn2-c2ccc(C)c(C)c2)c1C	3.98µM*	-6.8%	?

nr	miR-21 reporter	PTHR1 agonist	GLP1R ag
11	nt	-83.7%	3.2%
12	-1.2%	-1.8%	-3.9%
13	25.3%	-12.6%	-1.4%
14	nt	nt	0.4%
15	nt	nt	0.3%
16	2.3%	i	6.1%
17	0.4%	-13.5%	-5.1%
18	5.8%	i	-1.3%
19	1.1%	-23.4%	16.1%
20	?	i	-0.4%

Continued.
nr	SMILES	GLP1R inv ag	Pin1 inhibitor	HEK293 tox
21	O=C1NC(=O)C2(CCc3ccccc32)N1 (stereo not given)	1.6%	2.7%	-8.9%
22	C=C1CC2(OC1=O)c1ccccc1CCc1ccccc12	?	3.2%	10µM*
23	COc1ccc(-c2csc3ncnc(N4CCN(c5cccc(OC)c5)CC4)c23)cc1	?	1.0%	11.1%
24	Fc1ccc(-c2csc3ncnc(N4CCN(c5ccccc5)CC4)c23)cc1	12.6µM*	19.5%	1.6%
25	OCCN1CCN(c2ncnc3c2c(-c2ccccc2)cn3-c2ccc(Br)cc2)CC1	10µM*	-0.1%	?
26	COc1ccc(N2CCN(c3ncnc4scc(-c5ccccc5)c34)CC2)cc1	6.31µM*	2.1%	-7.1%
27	CCN1CCN(c2ncnc3c2c(-c2ccccc2)cn3-c2ccc(F)cc2)CC1	-6.4%	?	2.7%
28	c1ccc(-c2cc(-c3ccc(N4CCOCC4)cc3)nc3ccccc23)cc1	8.2%	-3.0%	37.9%
29	COc1ccc2c(-c3ccccc3)cc(N3CCOCC3)nc2c1	10µM*	?	17.4%
30	O=C1CCCC2=C1C1(CCCC1)N=C(Nc1nc3cc(Cl)ccc3o1)N2	nt	4.6%	nt

nr	miR-21 reporter	PTHR1 agonist	GLP1R ag
21	-0.2%	i	-3.2%
22	nt	-39.7%	-16.6%
23	-4.7%	-32.2%	4.2%
24	-0.6%	-10.2%	12.5%
25	-3.3%	-30.4%	14.3%
26	16.0%	-13.0%	11.9%
27	-2.1%	i	3.7%
28	-35.0%	i	8.0%
29	-4.1%	i	9.9%
30	nt	nt	nt

Remaining list, next part
nr	SMILES	GLP1R inv ag	Pin1 inhibitor	HEK293 tox
31	CC[C@@H]1OC(=O)C[C@H](O)[C@@H](C)[C@@H](O[C@H]2O[C@@H](C)[C@H](O[C@@H]3C[C@](C)(O)[C@H](O)[C@@H](C)O3)[C@@H](N(C)C)[C@@H]2O)[C@@H](C=O)C[C@@H](C)C(=O)/C=C/C(C)=C[C@@H]1CO[C@H]1O[C@@H](C)[C@H](O)[C@H](OC)[C@@H]1OC	nt	nt	nt
32	COc1cc(NC(=O)N2CCC(CN3CCCCCC3)CC2)cc(OC)c1OC	-10.8%	2.2%	-1.4%
33	CCCN(C(=O)Cn1ncc2c1-c1ccccc1OC2)c1cccc(C)c1	?	?	0.9%
34	COc1ccc(N2CCN(c3ncnc4scc(-c5ccc(F)cc5)c34)CC2)cc1	?	20.1%	-11.1%
35	COc1ccc(-n2cc(-c3ccccc3)c3c(N4CCOCC4)ncnc32)cc1	3.55µM*	12.7%	-15.3%
36	COc1ccc(N2CCN(c3ncnc4scc(-c5ccc(C)cc5)c34)CC2)cc1	2µM*	4.2%	3.4%
37	C[C@@H](O)[C@@H]1C(=O)N2C(C(=O)O)=C([C@H]3CCCO3)S[C@H]12	nt	nt	nt
38	O=C(Nc1ccc(Oc2ccccc2)nc1)C1CCN(Cc2ccccc2)CC1	11.2µM*	-3.2%	-26.5%
39	CCc1ccc(CN2CCC(C(=O)Nc3ccc(Oc4ccccc4)nc3)CC2)o1	8.91µM*	9.0%	-10.5%
40	O=C(Cc1ccccc1)Nc1ccc(NC(=O)C2CC2)nc1	-5.5%	-10.6%	-8.4%

nr	miR-21 reporter	PTHR1 agonist	GLP1R ag
31	nt	nt	1.1%
32	0.1%	-13.8%	nt
33	?	-67.0%	nt
34	22.1%	-15.1%	0.6%
35	15.9%	-19.0%	8.0%
36	3.0%	i	10.3%
37	nt	nt	-0.1%
38	10.7%	i	-2.9%
39	19.8%	-13.3%	15.2%
40	-12.2%	?	2.9%
